From publication PMC6766977 (International Journal of Cancer, 2019)

Chains of the proteins cited; added tags and fusions are not shown. Lines headed by an entry give the natural chain unless they say otherwise; changes in a name come on top.
UniProt P10275: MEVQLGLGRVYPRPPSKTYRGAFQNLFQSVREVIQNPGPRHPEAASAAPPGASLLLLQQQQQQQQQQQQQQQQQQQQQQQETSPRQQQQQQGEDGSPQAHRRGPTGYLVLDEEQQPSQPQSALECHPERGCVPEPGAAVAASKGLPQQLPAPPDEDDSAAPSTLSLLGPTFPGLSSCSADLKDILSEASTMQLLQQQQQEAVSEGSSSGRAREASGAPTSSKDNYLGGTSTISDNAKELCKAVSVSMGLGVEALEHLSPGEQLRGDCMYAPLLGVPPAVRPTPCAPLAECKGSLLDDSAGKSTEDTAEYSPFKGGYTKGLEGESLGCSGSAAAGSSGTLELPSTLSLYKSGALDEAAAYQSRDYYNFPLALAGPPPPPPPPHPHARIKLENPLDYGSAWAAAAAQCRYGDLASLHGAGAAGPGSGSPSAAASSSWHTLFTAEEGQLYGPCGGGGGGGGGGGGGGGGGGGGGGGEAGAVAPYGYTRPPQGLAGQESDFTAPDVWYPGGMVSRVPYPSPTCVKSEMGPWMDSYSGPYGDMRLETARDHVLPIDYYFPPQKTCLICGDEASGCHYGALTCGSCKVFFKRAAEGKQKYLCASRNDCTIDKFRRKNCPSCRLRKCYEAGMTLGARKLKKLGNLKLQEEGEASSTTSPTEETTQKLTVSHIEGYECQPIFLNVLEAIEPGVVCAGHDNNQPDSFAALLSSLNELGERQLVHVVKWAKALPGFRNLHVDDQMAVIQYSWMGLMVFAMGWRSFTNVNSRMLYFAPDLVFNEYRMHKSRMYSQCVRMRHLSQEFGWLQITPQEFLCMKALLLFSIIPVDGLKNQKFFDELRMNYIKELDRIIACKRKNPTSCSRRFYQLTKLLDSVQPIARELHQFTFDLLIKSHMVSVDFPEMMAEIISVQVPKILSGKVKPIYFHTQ

Target: AR wild type (Homo sapiens, UniProt P10275)
Details: read-out: IC50 inhibition of AR dimerization, AR wild type

IC50: 120 ± 30 nM
SMILES: CC(=O)c1cc(C(=O)N[C@@H](C)Cn2ccc(-c3ccc(C#N)c(Cl)c3)n2)[nH]n1 [Keto‐darolutamide]
